Earlier results in US11026910B2, “α- and γ-truxillic acid derivatives and pharmaceutical compositions thereof” (The Research Foundation for The State University of New York, priority 2012, dated 2021).

By UniProt entry, the sequences of proteins in these tests, tags left out. Residues count along the entry.
UniProt Q01469, 2-135 limits assumed: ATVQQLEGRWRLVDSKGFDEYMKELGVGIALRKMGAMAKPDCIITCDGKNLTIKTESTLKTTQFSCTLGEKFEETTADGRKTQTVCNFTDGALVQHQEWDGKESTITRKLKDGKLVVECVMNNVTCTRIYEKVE

Target: FABP5 (Homo sapiens, UniProt Q01469)
Settings: read-out: Ki against FABP5 (1,8-ANS displacement); McDonnell 2006; target of the acid and keto acid derivatives not given, FABP5 assumed; cited from earlier work

O=C(O)C(=O)c1cccc(OCc2ccccc2Cl)c1OCc1ccccc1Cl
Ki: < 2 nM
